Antibody variant affinities, Ab-91 heavy chain, assay 2

Data: MIT Lincoln Laboratory AlphaSeq set, Engelhart et al. 2022, doi:10.1038/s41597-022-01779-4, as distributed in FLAb.

Antigen: PDVDLGDISGINAS, a 14-residue peptide of the SARS-CoV-2 spike HR2 region.

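Phage display of a naive human antibody library on the peptide gave the parent. The library (AAYL51) carries one to three amino acid substitutions per variant, with no insertions or deletions. In AlphaSeq, yeast of one mating type display the scFv and yeast of the other type display the target. After mating in shaken culture at 30 °C for 16 h, diploids were selected and their barcode pairs sequenced. The ratio of observed to expected reads was calibrated, replicate by replicate, on BCL2-family standards whose Kd was known from biolayer interferometry. The assay was run in three technical replicates.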

The variants keep the light chain, the linker and the frameworks of Ab-91 (scFv order VL, the linker GGGGSGGGGSGGGGS, VH).
VL: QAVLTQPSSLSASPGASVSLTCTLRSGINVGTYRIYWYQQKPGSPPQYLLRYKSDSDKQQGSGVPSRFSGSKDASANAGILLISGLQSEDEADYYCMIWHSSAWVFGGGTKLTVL
VH: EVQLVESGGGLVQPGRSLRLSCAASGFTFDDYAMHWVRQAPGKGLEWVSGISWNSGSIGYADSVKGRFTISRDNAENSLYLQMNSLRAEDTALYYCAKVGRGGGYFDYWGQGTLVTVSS

Changes read parent residue, position, new residue, counted from the first residue of the VH shown. Numbers give log10(Kd / nM), so 0 is 1 nM and 3 is 1 µM. Smaller is tighter. A mean of the replicates is given; it leaves out those without a signal. An entry "n.d." has no value in the source: the pair was not observed among the diploids in that replicate. This suggests poor binding but is not conclusive. For reference, the parent read 1.86 as the reference entry and 0.88 as a member of this library.

changes	replicates, log10 nM	log10 Kd (nM), mean	signal with controls
A33G V64M Y108Q	3.89 n.d. n.d.	3.89	2 of 9 (4.10)
V64Q V99H G102S	n.d. n.d. n.d.	n.d.	0 of 9
G56C Y108V	1.03 1.01 0.42	0.82	6 of 9 (4.68)
D31T S57R D62M	4.91 n.d. 3.04	3.97	3 of 9 (3.10)
D62S S63F V99E	4.14 n.d. n.d.	4.14	1 of 9 (5.87)
Y32N M34Y V64G	5.78 n.d. n.d.	5.78	2 of 9 (4.38)
G50W Y60L A61C	n.d. n.d. n.d.	n.d.	0 of 9
G26E I58V G102M	n.d. 4.77 n.d.	4.77	2 of 9 (4.30)
G26M S55W G56P	6.44 5.42 n.d.	5.93	3 of 9 (5.12)
A33K M34I I51L	n.d. n.d. n.d.	n.d.	5 of 9 (4.63)
D31H S52M S55A	3.56 6.56 n.d.	5.06	3 of 9 (4.13)
F27M F29W S63P	n.d. 3.83 n.d.	3.83	1 of 9 (2.59)
D31K W53Q Y108D	2.67 1.33 1.62	1.87	1 of 9 (3.11)
W53P S55W G104F	4.77 n.d. 4.57	4.67	5 of 9 (4.61)
W53T G100F Y105A	n.d. n.d. n.d.	n.d.	0 of 9
F29P M34K R101W	4.01 n.d. n.d.	4.01	2 of 9 (3.99)
F27A G56C V64D	n.d. n.d. n.d.	n.d.	2 of 9 (3.50)
F29L G104Q	3.50 3.31 3.71	3.51	2 of 9 (4.45)
Y60K D62P K65N	4.85 5.63 n.d.	5.24	0 of 9
D31G Y60S F106H	n.d. n.d. n.d.	n.d.	0 of 9
N54Q V64A G103T	4.49 n.d. 5.40	4.94	3 of 9 (5.30)
T28L S57H	4.72 n.d. 3.35	4.03	1 of 9 (2.04)
G59S V99A Y105E	6.42 6.57 n.d.	6.49	7 of 9 (5.50)
G59D Y60C S63V	4.37 4.50 5.62	4.83	6 of 9 (5.15)
Y32F M34S N54G	n.d. n.d. n.d.	n.d.	2 of 9 (3.50)
G50M A61C F106A	n.d. n.d. n.d.	n.d.	0 of 9
D31Q G104P	2.04 2.07 1.54	1.89	5 of 9 (4.54)
A33H G103P D107E	5.37 n.d. 4.17	4.77	1 of 9 (4.65)
G26Y D31F I58R	n.d. n.d. n.d.	n.d.	2 of 9 (3.02)
S52A A61M G104V	n.d. n.d. n.d.	n.d.	0 of 9
G56F S63G G103N	5.92 4.89 n.d.	5.41	4 of 9 (4.68)
I51R S55E D107S	n.d. n.d. n.d.	n.d.	4 of 9 (4.79)
F29R D30P S55P	5.16 6.19 n.d.	5.67	1 of 9 (4.45)
F29V G103I	4.63 4.94 n.d.	4.79	1 of 9 (5.62)
A33T I58Q V64S	3.70 n.d. n.d.	3.70	1 of 9 (3.99)
S52P D62E R101G	n.d. n.d. n.d.	n.d.	0 of 9
T28Q D31R R101Q	0.72 0.67 0.04	0.48	8 of 9 (5.19)

Repeated from above, the 5 best binders with a signal in all replicates:

| changes | replicates, log10 nM | log10 Kd (nM), mean | signal with controls |
|---|---|---|---|
| T28Q D31R R101Q | 0.72 0.67 0.04 | 0.48 | 8 of 9 (5.19) |
| G56C Y108V | 1.03 1.01 0.42 | 0.82 | 6 of 9 (4.68) |
| D31K W53Q Y108D | 2.67 1.33 1.62 | 1.87 | 1 of 9 (3.11) |
| D31Q G104P | 2.04 2.07 1.54 | 1.89 | 5 of 9 (4.54) |
| F29L G104Q | 3.50 3.31 3.71 | 3.51 | 2 of 9 (4.45) |

Background: pairings of library AAYL51 with three empty control strains gave a value in 21% of cases (median 4.54, 5th percentile 3.26). Values in that range, when seen in few replicates, are hard to tell from nonspecific mating. The control count says in how many pairings with the empty strains this scFv gave a signal, with their mean in brackets.